Among the data in patent publication US20120107275A1, “FUSED HETEROCYCLIC DERIVATIVES AND METHODS OF USE” (Amgen Inc., priority 2006, published 2012) are Ki values, retold here.

Sequences of proteins named here, by UniProt entry; tags and fusion partners are left off. Residues count along the entry.
UniProt P08581, 1058-1365: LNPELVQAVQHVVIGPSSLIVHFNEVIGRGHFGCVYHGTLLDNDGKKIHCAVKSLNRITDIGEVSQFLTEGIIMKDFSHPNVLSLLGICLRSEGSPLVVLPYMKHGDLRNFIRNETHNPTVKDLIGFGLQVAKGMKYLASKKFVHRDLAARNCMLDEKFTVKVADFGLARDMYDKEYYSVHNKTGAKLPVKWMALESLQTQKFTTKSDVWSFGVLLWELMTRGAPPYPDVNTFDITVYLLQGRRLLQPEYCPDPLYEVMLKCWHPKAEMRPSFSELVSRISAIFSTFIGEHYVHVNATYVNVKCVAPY

In the assay the target is T1, c-Met kinase domain (GST-cMet) (Homo sapiens, UniProt P08581).
T1 construct: A PCR product covering residues 1058-1365 of c-Met (c-Met kinase domain); made in house; host or cells: High5 insect cells (baculovirus, BacToBac)
As to the kind of experiment: c-Met receptor assay (HTRF kinase assay with GST-cMet (P) enzyme, gastrin and ATP). As to conditions: illustrative activity values. Format: biochemical. The protocol: Cloning, Expression and Purification of c-Met Kinase Domain
The PCR product is cloned into a modified pFastBac1 expression vector (harboring the gene for S. japonicum glutathione S-transferase immediately upstream of the multiple cloning site) using standard molecular biological techniques. The GST-c-Met kinase domain fusion (GST-Met) gene is transposed into full-length baculovirus DNA using the BacToBac™ system (Invitrogen). High5 cells are infected with the recombinant baculovirus for 72 h at 27° C. The infected cells are harvested by centrifugation and the pellet is stored at −80° C. […] Eluted fractions are analyzed by SDS-PAGE and concentrated to <10 mL (˜10 mg/mL total protein). […] The fractions are analyzed by SDS-PAGE and the appropriate fractions are pooled and concentrated to ˜1 mg/mL. […]
The resin is washed with 10 column volumes (100 mL) of Lysis Buffer. […] Fractions with significant OD280 readings are run on another 12% Tris Glycine gel. The peak tubes with GST-cMET are pooled and the OD280 is read with the column buffer listed above as the blank buffer. […]
After incubation, the solution is concentrated in a Vivaspin 20 ml Concentrator to a volume less than 2.00 ml. […] Fractions are pooled and the OD280 is read with the column buffer used as the blank. […]
KM ATP, KM gastrin for various enzymes were determined by HTRF/^33P labeling and HTRF methods.
Background: Time-resolved FRET reads energy transfer from a long-lived donor to a nearby acceptor.

Molecules are shown by their SMILES.

Consider `Cn1cc(-c2ccc3onc(C(F)(F)c4ccc5ncccc5c4)c3n2)cn1` [Example 440, 6-(difluoro(5-(1-methyl-1H-pyrazol-4-yl)isoxazolo[4,5-b]pyridin-3-yl)methyl)quinoline], for which the affinity corresponds to a Ki of 172 nM.

In general, Ki refers to a dissociation constant, usually derived from enzyme kinetics or from competition with a known ligand.
